Test results published in patent publication US20050187288A1, “Beta-lapachone and methods of treating cancer” (priority 2004, published 2005).

Assay: Study 1A: repetitive weekly intravenous toxicity study in rats
Details: 45 mg/kg high dose toxicology group

CC1(C)CCC2=C(O1)c1ccccc1C(=O)C2=O [β-lapachone, 3,4-dihydro-2,2-dimethyl-2H-naphtho [1,2-b]pyran-5,6-dione]
mortality: One animal in the 45 mg/kg toxicology high dose group was found dead on Day 3
